Only a part is listed here, and it is no random draw. Activity calls are given as the source filed them.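 Rule for the calls: active = inhibition above the primary screen's cutoff, its mean inhibition plus 3 SD (cut at about 35% in these data); inactive = the rest.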

Sequences of proteins named here, by UniProt entry; tags and fusion partners are left off. A change or cut given only in a name is not applied to a line headed by its entry.
UniProt P78417: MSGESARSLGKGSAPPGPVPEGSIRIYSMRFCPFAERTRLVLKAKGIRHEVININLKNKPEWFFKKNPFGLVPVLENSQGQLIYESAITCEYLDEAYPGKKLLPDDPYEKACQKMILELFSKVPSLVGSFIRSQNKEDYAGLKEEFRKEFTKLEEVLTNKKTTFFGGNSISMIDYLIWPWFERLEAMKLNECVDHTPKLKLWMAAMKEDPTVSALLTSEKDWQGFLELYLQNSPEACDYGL

The assay deals with Glutathione S-transferase omega-1 (Homo sapiens) (UniProt P78417). Description: GSTO1 inhibitor hit confirmation, counter-screen for RBBP9 inhibitor project, biochemical, fluorescence polarization, triplicate (AID 2176).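 Note: loss of polarization as inhibitors block binding of rhodamine sulfonate ester activity probe; 0% = GSTO1 with DMSO and 100% = wells lacking GSTO1 enzyme.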 Particulars: recombinant GSTO1, probe fluorescence polarization; at 5.96 µM; hits give high values.
`C[N+]1=C2C=CC=CC=C2SC12C([N+](=O)[O-])=CC([N+](=O)[O-])=C[C-]2[N+](=O)[O-]` (stereo not drawn): the inhibition is active: 40.4%. Under `Nc1cccc2c([As](=O)(O)O)cccc12` stands inactive: 31.9%.

As for `CN(C)C(=O)c1cc([N+](=O)[O-])cc2c1-c1c(cc([N+](=O)[O-])cc1[N+](=O)[O-])C2=O`, the inhibition is inactive: 20.4%.

For the origin of these results see PubChem BioAssay AID2176 (The Scripps Research Institute Molecular Screening Center, 2009).
